According to patent US8563695B2, “Antibodies that bind β2” (Genentech, Inc., priority 2007, dated 2013):

System: SW620 cells
Assay: Stimulation of SW620 cells with Notch ligands (co-culture or plate-bound) for EMT induction
Format: cell-based, human
Details: exogenous ligand in trans by co-culture or plate-bound; data not shown
From the text: SW620 cells express the Notch ligands Jagged1 and Jagged2 (FIG. 11D), yet are not undergoing EMT. Given the apparent role of Notch signaling in the EMT induced by β2, we investigated whether Notch ligands from the Jagged or Delta-like families could induce EMT. Cells were stimulated by exogenous addition of the ligands Jagged1 or DLL1 in various formats, including in trans by co-culture with ligand-expressing cells or using plate-bound ligand, but no evidence of EMT was observed under any of the conditions used (data not shown). As a positive control, co-culture of Notch ligand-expressing cells with 3T3 cells transfected with Notch1 produced evidence of Notch pathway signaling as determined by a luciferase reporter assay from a CSL-binding promoter construct (data not shown).

B1: DLL1: Notch ligand of the Delta-like family, added exogenously (co-culture or plate-bound) (protein, UniProt O00548 18-723, looked up)
Delta-like protein 1: QVWSSGVFELKLQEFVNKKGLLGNRNCCRGGAGPPPCACRTFFRVCLKHYQASVSPEPPCTYGSAVTPVLGVDSFSLPDGGGADSAFSNPIRFPFGFTWPGTFSLIIEALHTDSPDDLATENPERLISRLATQRHLTVGEEWSQDLHSSGRTDLKYSYRFVCDEHYYGEGCSVFCRPRDDAFGHFTCGERGEKVCNPGWKGPYCTEPICLPGCDEQHGFCDKPGECKCRVGWQGRYCDECIRYPGCLHGTCQQPWQCNCQEGWGGLFCNQDLNYCTHHKPCKNGATCTNTGQGSYTCSCRPGYTGATCELGIDECDPSPCKNGGSCTDLENSYSCTCPPGFYGKICELSAMTCADGPCFNGGRCSDSPDGGYSCRCPVGYSGFNCEKKIDYCSSSPCSNGAKCVDLGDAYLCRCQAGFSGRHCDDNVDDCASSPCANGGTCRDGVNDFSCTCPPGYTGRNCSAPVSRCEHAPCHNGATCHERGHRYVCECARGYGGPNCQFLLPELPPGPAVVDLTEKLEGQGGPFPWVAVCAGVILVLMLLLGCAAVVVCVRLRLQKHRPPADPCRGETETMNNLANCQREKDISVSIIGATQIKNTNKKADFHGDHSADKNGFKARYPAVDYNLVQDLKGDDTAVRDAHSKRDTKCQPQGSSGEEKGTPTTLRGGEASERKRPDSGCSTSKDTKYQSVYVISEEKDECVIATEV
- Induction of EMT or related morphological change: no evidence of induction of EMT or related morphological change
